Assay results as given in patent US20140286963A1 (Genentech, published 2014).

The chains behind the UniProt entries cited, without tags or fusion partners. Where a name states a change or a piece, a line headed by the entry shows the natural chain unless it says otherwise. Residues count along the entry.
UniProt P56817, 22-457: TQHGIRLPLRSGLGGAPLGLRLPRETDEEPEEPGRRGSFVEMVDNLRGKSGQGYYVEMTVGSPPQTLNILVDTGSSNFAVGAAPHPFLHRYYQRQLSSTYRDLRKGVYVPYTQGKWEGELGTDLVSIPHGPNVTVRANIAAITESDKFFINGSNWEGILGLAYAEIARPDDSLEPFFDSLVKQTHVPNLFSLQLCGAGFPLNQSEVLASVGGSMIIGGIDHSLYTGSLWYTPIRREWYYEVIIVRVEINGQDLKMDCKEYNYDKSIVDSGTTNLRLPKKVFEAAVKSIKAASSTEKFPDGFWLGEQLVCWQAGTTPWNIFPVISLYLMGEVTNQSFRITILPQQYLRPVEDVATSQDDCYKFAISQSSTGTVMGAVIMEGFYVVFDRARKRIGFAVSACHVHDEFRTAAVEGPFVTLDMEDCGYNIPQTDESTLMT

B1: Fab LC 6 (Fab, V domains shown)
VH: EVQLVESGGGLVQPGGSLRLSCAASGFNFYYSSIHWVRQAPGKGLEWVASISPYSGYTSYADSVKGRFTISADTSKNTAYLQMNSLRAEDTAVYYCARQPTHYYYYAKGYKAMDYWGQGTLVTVSS
VL: DIQMTQSPSSLSASVGDRVTITCRASQSVSSAVAWYQQKPGKAPKLLISWASWLYSGVPSRFSGSGSGTDFTLTISSLQPEDFATYYCQQYSYSPFTFGQGTKVEIK
B2: Fab LC 9 (Fab, V domains shown)
VH: EVQLVESGGGLVQPGGSLRLSCAASGFNFYYSSIHWVRQAPGKGLEWVASISPYSGYTSYADSVKGRFTISADTSKNTAYLQMNSLRAEDTAVYYCARQPTHYYYYAKGYKAMDYWGQGTLVTVSS
VL: DIQMTQSPSSLSASVGDRVTITCRASQSVSSAVAWYQQKPGKAPKLLIWYASWLYSGVPSRFSGSGSGTDFTLTISSLQPEDFATYYCQQYSYSPFTFGQGTKVEIK
B3: Fab LC10 (Fab, V domains shown)
VH: EVQLVESGGGLVQPGGSLRLSCAASGFNFYYSSIHWVRQAPGKGLEWVASISPYSGYTSYADSVKGRFTISADTSKNTAYLQMNSLRAEDTAVYYCARQPTHYYYYAKGYKAMDYWGQGTLVTVSS
VL: DIQMTQSPSSLSASVGDRVTITCRASQSVSSAVAWYQQKPGKAPKLLIWWASSLYSGVPSRFSGSGSGTDFTLTISSLQPEDFATYYCQQYSYSPFTFGQGTKVEIK
B4: Fab LC 11 (Fab, V domains shown)
VH: EVQLVESGGGLVQPGGSLRLSCAASGFNLSYSYIHWVRQAPGKGLEWVASIYSSYGSTYYADSVKGRFTISADTSKNTAYLQMNSLRAEDTAVYYCARSYHHSDKYYYAWSYALDYWGQGTLVTVSS
VL: DIQMTQSPSSLSASVGDRVTITCRASQSVSSAVAWYQQKPGKAPKLLIYSASSLYSGVPSRFSGSGSGTDFTLTISSLQPEDFATYYCQQYYPLTFGQGTKVEIK

What was measured:
[1] = biological target: T1, human BACE1 extracellular domain, amino acids 1-457 of SEQ ID NO:49 (human, UniProt P56817 22-457, biotinylated in the phage sorting, phage ELISAs and the competition ELISA (sites not given)); assay: one-point phage competition ELISA: ratio of the ELISA signal of Fab-displaying phage on plate-immobilized BACE1 without / with 20 nM BACE1 in solution
T1 construct: also called human BACE1 ECD; hBACE1
Description: (§1) Screening of the libraries for affinity maturation of initially obtained antibodies was carried out similarly as described above. […] For rounds 2 and 3, 20 nM and 5 nM biotinylated BACE1 was incubated with amplified phage, respectively. Clones (96) from each of the two libraries were screened in a one-point competition ELISA, where 20 nM of BACE1 was used in solution to compete the phage particle from binding to plate-immobilized BACE1 as described below.
(§2) A plate immobilized with BACE1 was prepared by capturing 2 μg/ml biotinylated BACE1 for 15 min using a 384-well Maxisorp Immunoplate that was previously coated with 2 μg/ml of Neutravidin at 4° C. for overnight and blocked with Blocking Buffer. The culture supernatants from individual clones grown in a 96-well format were diluted 20-fold in PBT buffer and was incubated with or without 20 nM BACE1 at room temperature for 1 h. The mixture was transferred to the plate with immobilized BACE1 and incubated for 15 min. The plate was washed six times by PT buffer and the bound phage was detected by anti-M13-HRP as described above. The ratio between the ELISA signal from the well in the absence and the presence of BACE1 in solution indicates the affinity of the clone, where higher ratios indicate the higher affinities.

[2] = biological target: T1, human BACE1 extracellular domain, amino …; assay: phage competition ELISA: Fab-displaying phage on plate-immobilized BACE1, serial dilutions of BACE1 in solution
Description: (§3) Single colonies (in XL1 blue cells) of the selected clones were picked up and grown in 1 ml 2YT broth supplemented with 50 μg/ml carbenicillin, 10 μg/ml tetracycline and M13KO7 at 37° C. for 2 h. Kanamycin (25 μg/ml) was added to the culture, which continued to grow for 6 h. The culture was transferred to 30 ml 2YT broth supplemented with 50 μg/ml carbenicillin and 25 μg/mlkanamycin and grown at 37° C. overnight. Phage were harvested and purified as previously described (Sidhu, S. S. et al. Methods Enzymol. 328: 333-363 (2000)). The purified Fab-displaying phage were serially diluted in PBT buffer and tested for binding to BACE1 immobilized on a plate. A fixed phage concentration that gives 80% of saturation signals was selected for the subsequent competition ELISA. The competition was conducted by incubating the fixed, sub-saturating Fab-displaying phage with serial dilutions of BACE1 for 1 h and then transferred to the BACE1-immobulized plate for 15 min to capture unbound phage. The plate was then washed for 8 times and bound phage were detected by anti-M13-HRP.
(§4) To estimate the affinity of these 6 clones, phage competition ELISAs were performed, as described above, and IC₅₀ values were determined (FIG. 7). The IC₅₀ values were determined by fitting the data to a four-parameter logistic equation developed by Marquardt (Marquardt, D. W. SIAM J. Appl. Math. 11: 431-441 (1963)) using Kaleidagraph (Synergy Software) and are shown below in Table 2.

[3] = biological target: T1, human BACE1 extracellular domain, amino …; assay: phage competition ELISA IC50, against parent Fab12
Description: as §3, §4

[4] = biological target: T1, human BACE1 extracellular domain, amino …; assay: one-point competition phage ELISA, plate-immobilized BACE1, 20 nM BACE1 in solution
Description: as §1, §2

[5] = biological target: T1, human BACE1 extracellular domain, amino …; assay: cell-based or functional assay
[6] = biological target: T1, human BACE1 extracellular domain, amino …; assay: phage competition ELISA IC50, against parent Fab5
Description: as §3, with “The competition was conducted by incubating the fixed, sub-saturating Fab-displaying phage with serial dilutions of BACE1 for 1 h and then transferred to the BACE1-immobulized plate for 15 min to capture unbound phage.” left out
as §4

Binder | Competition ELISA Ratio [1] | IC50 [2] | Fold affinity improvement [3] | ratio of ELISA signal in the absence to the presence of BACE1 in solution [4] | IC50 (nM), HTRF enzyme activity assay [5] | Fold affinity improvement [6]
B1 | 4 | 0.12 nM | 156 fold | > 4 ratio |  | 
B2 | 11.7 | 0.12 nM | 378 fold | > 4 ratio |  | 
B3 | 7.8 | 0.12 nM | 378 fold | > 4 ratio | 180 nM | 
B4 | 4.4 | 0.88 nM |  | > 4 ratio |  | 24 fold
